The species entered for data set [1] is Rattus norvegicus. In kind it is toxicity, organism-based, Sprague-Dawley. Conditions: in vivo, 24 h, tissue Blood, time 1 day.
Data set [2] is filed under the species Rattus norvegicus. Put plainly: DrugMatrix - Regimen: Daily Repeat. On the set-up: regimen Daily Repeat, gender Male, age 6-8 weeks. Conditions: in vivo; for LIPASE: dose 6.3 mg/Kg, dose level Low. The format is toxicity, organism-based, Sprague-Dawley.
Where [3] appears, read: ip, 0 mg/kg, vehicle control, route intraperitoneal, dose level Control, vehicle .1 % RSA/SALINE.

On to `CNCC(O)c1ccc(O)c(O)c1` (stereo not given) [RACEPINEPHRINE], for which the MONOCYTE in data set [1] (sc, 0 mg/kg, route mini-PUMP - SUBCUTANEOUS, dose level Control, vehicle 100 % SALINE) was found to be 1.83%; in data set [2] (sc, 0 mg/kg, 120 h, tissue Blood, route mini-PUMP - SUBCUTANEOUS, dose level Control, time 5 day, vehicle 100 % SALINE) it was 1.83%. Further, the HEMATOCRIT in data set [1] (sc, […], route mini-PUMP - SUBCUTANEOUS, dose 0.77 mg/Kg, dose level High, vehicle 100 % SALINE) turned out to be 35.5%; in data set [2] (sc, […], 72 h, tissue Blood, route mini-PUMP - SUBCUTANEOUS, dose 0.77 mg/Kg, dose level High, time 3 day, vehicle 100 % SALINE) it was 37.5%. Moreover, in data set [2] (sc, 0 mg/kg, […], tissue Blood, route mini-PUMP - SUBCUTANEOUS, dose level Control, time 14 day, vehicle 100 % SALINE), the NEUTROPHIL turned out to be 16.5%. Besides, the “URIC ACID” value in data set [2] (sc, […], 120 h, tissue Plasma, route mini-PUMP - SUBCUTANEOUS, dose 0.77 mg/Kg, dose level High, time 5 day, vehicle 100 % SALINE) is 1.57 mg/dL.

INTERLEUKIN 1 BETA, RAT showed an MONOCYTE in data set [1] (setting [3]) of 2.33%.

INTERLEUKIN 6, RAT: the MONOCYTE in data set [1] (setting [3]) was 2.33%.

On to TNF-ALPHA, RAT, for which the MONOCYTE in data set [1] (setting [3]) is recorded as 2.33%; in data set [1] (ip, […], route intraperitoneal, dose 0.25 mg/Kg, dose level High, vehicle .1 % RSA/SALINE) it was 2.33%.

For the compound ZIRCONIUM(IV) CHLORIDE, the ALBUMIN in data set [2] (po, 0 mg/kg, 72 h, tissue Plasma, route oral GAVAGE, dose level Control, time 3 day, […]) was 3.75 G/DL; in data set [2] (po, 0 mg/kg, 120 h, tissue Plasma, route oral GAVAGE, dose level Control, time 5 day, […]), 4.12 G/DL. Further, in data set [2] (po, 0 mg/kg, 120 h, tissue Blood, route oral GAVAGE, dose level Control, time 5 day, […]), the HEMOGLOBIN amounted to 13.38 G/DL. Also, the LIPASE in data set [2] (po, […], 72 h, tissue Plasma, route oral GAVAGE, time 3 day) was determined as 9.33 u/L; in data set [2] (po, […], 120 h, tissue Plasma, route oral GAVAGE, time 5 day) it was 9.33 u/L.
